## CycPeptMPDB entries from one study

Values of Taechalertpaisarn et al. 2022, doi:10.1021/acs.jmedchem.2c00010, as listed in CycPeptMPDB.

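Conditions beyond the assay type are not listed; see the original paper. The list need not hold all peptides of the study. Entries at the database's floor value (log10 P of -10) are not listed.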

PAMPA is the parallel artificial membrane permeability assay, which has no cells and reads passive diffusion.
Caco-2 values are permeabilities across monolayers of Caco-2 human intestinal cells.
P is given in units of 10^-6 cm/s (from log10 values with two decimals); larger means faster passage.
Cells with "–" have no entry in this list.
A structure that stands twice has two entries in the source.

| SMILES | PAMPA (10^-6 cm/s) | Caco-2 (10^-6 cm/s) |
|---|---|---|
| CC(C)C[C@@H]1NC(=O)[C@@H](CC(C)C)NC(=O)[C@@H](CC(C)C)NC(=O)[C@@H](CC(C)C)NC(=O)[C@H]2CCCN2C(=O)[C@H](CCC(=O)N2CCCC2)NC1=O | 0.63 | – |
| CC(C)C[C@@H]1NC(=O)[C@H](Cc2ccc3ccccc3c2)NC(=O)[C@@H](CC(C)C)NC(=O)[C@H](C)NC(=O)[C@@H](CCC(=O)N2CCCC2)NC(=O)[C@H]2CCCN2C1=O | 3 | – |
| CC(C)C[C@@H]1NC(=O)[C@@H](CC(C)C)NC(=O)[C@@H](CC(C)C)NC(=O)[C@@H](CCC(=O)N2CCCC2)NC(=O)[C@H]2CCCN2C(=O)[C@H](CC(C)C)NC1=O | 1.7 | – |
| CC(C)C[C@@H]1NC(=O)[C@@H](CC(C)C)NC(=O)[C@H](CCC(=O)N2CCCC2)NC(=O)[C@@H](CC(C)C)NC(=O)[C@H]2CCCN2C(=O)[C@H](CC(C)C)NC1=O | 0.2 | – |
| CC(C)C[C@@H]1NC(=O)[C@@H](CC(C)C)NC(=O)[C@@H](CC(C)C)NC(=O)[C@@H](CCC(=O)N2CCCC2)NC(=O)[C@@H](CC(C)C)NC(=O)[C@H]2CCCN2C1=O | 1 | – |
| CC(C)C[C@@H]1NC(=O)[C@@H](CCC(=O)N2CCCC2)NC(=O)[C@H]2CCCN2C(=O)[C@H](CC(C)C)NC(=O)[C@H](CCc2ccccc2)NC(=O)[C@@H](CC(C)C)NC1=O | 5.6 | – |
| CC(C)C[C@@H]1NC(=O)[C@@H](CC(C)C)NC(=O)[C@@H](CC(C)C)NC(=O)[C@@H](CC(C)C)NC(=O)[C@@H](CCC(=O)N2CCCC2)NC(=O)[C@H]2CCCN2C1=O | 0.55 | – |
| CC(C)C[C@@H]1NC(=O)[C@@H](CCC(=O)N2CCCC2)NC(=O)[C@@H](CC(C)C)NC(=O)[C@@H](CC(C)C)NC(=O)[C@H]2CCCN2C(=O)[C@H](CC(C)C)NC1=O | 0.3 | – |
| CC(C)C[C@@H]1NC(=O)[C@H](CCc2ccccc2)NC(=O)[C@@H](CC(C)C)NC(=O)[C@H](C)NC(=O)[C@@H](CCC(=O)N2CCCC2)NC(=O)[C@H]2CCCN2C1=O | 1.3 | – |
| CC(C)C[C@@H]1NC(=O)[C@@H](CC(C)C)NC(=O)[C@H](CC(C)C)NC(=O)[C@@H](CCC(=O)N(C)C)NC(=O)[C@H]2CCCN2C(=O)[C@H](CC(C)C)NC1=O | 0.66 | – |
| CC(C)C[C@@H]1NC(=O)[C@H](Cc2ccc3ccccc3c2)NC(=O)[C@@H](CC(C)C)NC(=O)[C@H](CC2CCCCC2)NC(=O)[C@@H](CCC(=O)N2CCCC2)NC(=O)[C@H]2CCCN2C1=O | 5.2 | – |
| CC(C)C[C@@H]1NC(=O)[C@@H](CC(C)C)NC(=O)[C@H](CCC(=O)N2CCCC2)NC(=O)[C@@H](CC(C)C)NC(=O)[C@H]2CCCN2C(=O)[C@H](CC(C)C)NC1=O | – | 0.071 |
| CC(C)C[C@@H]1NC(=O)[C@H](c2ccccc2)NC(=O)[C@@H](CC(C)C)NC(=O)[C@H](CCC(=O)N2CCCC2)NC(=O)[C@@H](CC2CCCCC2)NC(=O)[C@H]2CCCN2C1=O | 3.2 | – |
| CC(C)C[C@@H]1NC(=O)[C@H](CCc2ccccc2)NC(=O)[C@@H](CC(C)C)NC(=O)[C@H](CCC(=O)N2CCCC2)NC(=O)[C@@H](CC(C)C)NC(=O)[C@H]2CCCN2C1=O | 1 | – |

2 of these entries, quoted again:

| SMILES | PAMPA (10^-6 cm/s) | Caco-2 (10^-6 cm/s) |
|---|---|---|
| CC(C)C[C@@H]1NC(=O)[C@@H](CCC(=O)N2CCCC2)NC(=O)[C@H]2CCCN2C(=O)[C@H](CC(C)C)NC(=O)[C@H](CCc2ccccc2)NC(=O)[C@@H](CC(C)C)NC1=O | 5.6 | – |
| CC(C)C[C@@H]1NC(=O)[C@@H](CCC(=O)N2CCCC2)NC(=O)[C@@H](CC(C)C)NC(=O)[C@@H](CC(C)C)NC(=O)[C@H]2CCCN2C(=O)[C@H](CC(C)C)NC1=O | 0.3 | – |